# Results: patent EP4834897A1, “COMPOUNDS WITH TWO AZAHETEROCYCLES SUBSTITUTED ISOINDOLINONE SKELETON AND USES THEREOF” (dated 2026)
# By UniProt entry, the sequences of proteins in these tests, tags left out.
# UniProt Q13422, whole entry: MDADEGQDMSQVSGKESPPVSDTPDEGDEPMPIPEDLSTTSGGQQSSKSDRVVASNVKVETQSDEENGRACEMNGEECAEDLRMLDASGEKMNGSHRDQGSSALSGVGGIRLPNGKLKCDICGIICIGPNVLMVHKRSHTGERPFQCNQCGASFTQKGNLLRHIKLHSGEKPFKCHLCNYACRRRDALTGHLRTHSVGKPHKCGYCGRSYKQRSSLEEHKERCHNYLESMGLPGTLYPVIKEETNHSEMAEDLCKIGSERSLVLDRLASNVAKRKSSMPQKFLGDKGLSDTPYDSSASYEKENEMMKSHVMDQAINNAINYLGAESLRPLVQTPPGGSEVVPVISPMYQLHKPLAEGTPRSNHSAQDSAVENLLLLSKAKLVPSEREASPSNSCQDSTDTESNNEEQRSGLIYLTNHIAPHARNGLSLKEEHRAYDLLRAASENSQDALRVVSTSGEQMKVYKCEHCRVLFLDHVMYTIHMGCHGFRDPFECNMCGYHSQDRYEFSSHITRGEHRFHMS
# UniProt Q96SW2, whole entry: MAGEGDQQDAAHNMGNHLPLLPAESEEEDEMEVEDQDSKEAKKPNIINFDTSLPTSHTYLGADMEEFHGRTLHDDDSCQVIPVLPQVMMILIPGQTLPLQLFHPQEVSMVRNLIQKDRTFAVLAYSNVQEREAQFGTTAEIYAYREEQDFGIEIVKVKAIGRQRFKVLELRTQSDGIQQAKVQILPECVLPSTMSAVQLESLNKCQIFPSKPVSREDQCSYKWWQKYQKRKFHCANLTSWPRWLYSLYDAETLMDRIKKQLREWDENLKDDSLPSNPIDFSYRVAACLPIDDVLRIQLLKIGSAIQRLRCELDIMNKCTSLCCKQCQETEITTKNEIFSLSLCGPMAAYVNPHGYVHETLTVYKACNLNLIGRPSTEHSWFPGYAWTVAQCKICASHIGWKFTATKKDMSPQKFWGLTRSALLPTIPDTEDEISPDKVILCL
# UniProt Q9UKS7, whole entry: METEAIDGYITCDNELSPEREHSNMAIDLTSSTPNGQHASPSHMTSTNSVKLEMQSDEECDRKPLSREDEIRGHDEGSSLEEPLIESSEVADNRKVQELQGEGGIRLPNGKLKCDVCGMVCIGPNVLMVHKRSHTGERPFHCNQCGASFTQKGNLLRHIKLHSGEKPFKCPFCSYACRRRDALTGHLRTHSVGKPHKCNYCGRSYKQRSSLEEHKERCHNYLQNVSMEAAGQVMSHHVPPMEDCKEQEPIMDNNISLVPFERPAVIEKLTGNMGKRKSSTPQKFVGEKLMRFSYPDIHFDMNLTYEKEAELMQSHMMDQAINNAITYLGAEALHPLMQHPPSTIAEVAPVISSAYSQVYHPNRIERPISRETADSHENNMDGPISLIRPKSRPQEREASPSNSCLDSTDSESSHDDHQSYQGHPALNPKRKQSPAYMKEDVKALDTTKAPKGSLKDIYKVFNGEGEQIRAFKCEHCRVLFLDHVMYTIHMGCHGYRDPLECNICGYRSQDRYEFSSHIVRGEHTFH
# UniProt Q9UKT9, whole entry: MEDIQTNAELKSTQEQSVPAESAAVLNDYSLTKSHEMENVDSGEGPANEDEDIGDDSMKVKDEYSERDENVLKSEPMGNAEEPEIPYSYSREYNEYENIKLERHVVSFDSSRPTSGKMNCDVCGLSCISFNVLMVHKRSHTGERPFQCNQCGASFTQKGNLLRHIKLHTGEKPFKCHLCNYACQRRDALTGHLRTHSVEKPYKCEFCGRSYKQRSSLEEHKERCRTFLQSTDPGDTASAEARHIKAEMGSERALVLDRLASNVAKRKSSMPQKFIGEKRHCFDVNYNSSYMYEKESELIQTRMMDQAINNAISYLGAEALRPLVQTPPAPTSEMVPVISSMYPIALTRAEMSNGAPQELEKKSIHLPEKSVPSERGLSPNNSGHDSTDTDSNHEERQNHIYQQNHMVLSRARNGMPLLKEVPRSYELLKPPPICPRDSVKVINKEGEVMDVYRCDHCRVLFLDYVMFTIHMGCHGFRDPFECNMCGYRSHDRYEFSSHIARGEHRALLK
# UniProt P30291, whole entry: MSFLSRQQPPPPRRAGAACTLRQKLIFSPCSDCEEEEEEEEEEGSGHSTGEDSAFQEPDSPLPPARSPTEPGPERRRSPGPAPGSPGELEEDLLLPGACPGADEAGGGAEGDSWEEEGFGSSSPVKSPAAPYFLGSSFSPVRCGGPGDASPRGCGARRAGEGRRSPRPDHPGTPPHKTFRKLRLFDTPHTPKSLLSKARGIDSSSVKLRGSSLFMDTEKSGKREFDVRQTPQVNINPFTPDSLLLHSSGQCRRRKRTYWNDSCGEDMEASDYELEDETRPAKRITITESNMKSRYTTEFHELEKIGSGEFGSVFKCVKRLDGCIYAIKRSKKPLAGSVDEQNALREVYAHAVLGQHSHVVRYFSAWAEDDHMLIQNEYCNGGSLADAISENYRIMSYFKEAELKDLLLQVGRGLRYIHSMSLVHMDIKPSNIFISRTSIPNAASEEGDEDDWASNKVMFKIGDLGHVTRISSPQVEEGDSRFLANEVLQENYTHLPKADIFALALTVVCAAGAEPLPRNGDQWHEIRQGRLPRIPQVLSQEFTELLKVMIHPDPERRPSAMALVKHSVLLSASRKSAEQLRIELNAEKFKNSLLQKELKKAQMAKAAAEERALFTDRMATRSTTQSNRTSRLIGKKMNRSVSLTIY
# UniProt P15170, whole entry: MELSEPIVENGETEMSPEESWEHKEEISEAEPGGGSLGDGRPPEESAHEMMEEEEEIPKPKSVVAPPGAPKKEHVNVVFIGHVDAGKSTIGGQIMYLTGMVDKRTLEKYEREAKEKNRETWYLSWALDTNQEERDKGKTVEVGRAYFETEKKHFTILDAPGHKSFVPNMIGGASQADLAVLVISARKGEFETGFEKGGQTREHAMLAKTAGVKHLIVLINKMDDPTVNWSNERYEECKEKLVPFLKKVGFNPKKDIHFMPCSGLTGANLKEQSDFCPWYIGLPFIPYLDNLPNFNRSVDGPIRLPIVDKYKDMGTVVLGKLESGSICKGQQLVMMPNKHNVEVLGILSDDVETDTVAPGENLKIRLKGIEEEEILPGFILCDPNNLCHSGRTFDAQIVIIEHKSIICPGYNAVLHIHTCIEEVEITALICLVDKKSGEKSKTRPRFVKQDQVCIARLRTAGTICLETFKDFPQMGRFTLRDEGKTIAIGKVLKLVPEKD
# UniProt P48729, whole entry: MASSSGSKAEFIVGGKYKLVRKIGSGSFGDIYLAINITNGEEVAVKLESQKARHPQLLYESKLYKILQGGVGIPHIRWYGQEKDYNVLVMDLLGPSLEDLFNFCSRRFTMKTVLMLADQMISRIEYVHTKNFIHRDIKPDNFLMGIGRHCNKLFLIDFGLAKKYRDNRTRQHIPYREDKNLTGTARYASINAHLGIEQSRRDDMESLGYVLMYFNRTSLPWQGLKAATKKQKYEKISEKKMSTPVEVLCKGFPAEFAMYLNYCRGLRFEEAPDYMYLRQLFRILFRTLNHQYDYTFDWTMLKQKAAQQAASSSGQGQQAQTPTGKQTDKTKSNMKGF
# UniProt Q16531, whole entry partner: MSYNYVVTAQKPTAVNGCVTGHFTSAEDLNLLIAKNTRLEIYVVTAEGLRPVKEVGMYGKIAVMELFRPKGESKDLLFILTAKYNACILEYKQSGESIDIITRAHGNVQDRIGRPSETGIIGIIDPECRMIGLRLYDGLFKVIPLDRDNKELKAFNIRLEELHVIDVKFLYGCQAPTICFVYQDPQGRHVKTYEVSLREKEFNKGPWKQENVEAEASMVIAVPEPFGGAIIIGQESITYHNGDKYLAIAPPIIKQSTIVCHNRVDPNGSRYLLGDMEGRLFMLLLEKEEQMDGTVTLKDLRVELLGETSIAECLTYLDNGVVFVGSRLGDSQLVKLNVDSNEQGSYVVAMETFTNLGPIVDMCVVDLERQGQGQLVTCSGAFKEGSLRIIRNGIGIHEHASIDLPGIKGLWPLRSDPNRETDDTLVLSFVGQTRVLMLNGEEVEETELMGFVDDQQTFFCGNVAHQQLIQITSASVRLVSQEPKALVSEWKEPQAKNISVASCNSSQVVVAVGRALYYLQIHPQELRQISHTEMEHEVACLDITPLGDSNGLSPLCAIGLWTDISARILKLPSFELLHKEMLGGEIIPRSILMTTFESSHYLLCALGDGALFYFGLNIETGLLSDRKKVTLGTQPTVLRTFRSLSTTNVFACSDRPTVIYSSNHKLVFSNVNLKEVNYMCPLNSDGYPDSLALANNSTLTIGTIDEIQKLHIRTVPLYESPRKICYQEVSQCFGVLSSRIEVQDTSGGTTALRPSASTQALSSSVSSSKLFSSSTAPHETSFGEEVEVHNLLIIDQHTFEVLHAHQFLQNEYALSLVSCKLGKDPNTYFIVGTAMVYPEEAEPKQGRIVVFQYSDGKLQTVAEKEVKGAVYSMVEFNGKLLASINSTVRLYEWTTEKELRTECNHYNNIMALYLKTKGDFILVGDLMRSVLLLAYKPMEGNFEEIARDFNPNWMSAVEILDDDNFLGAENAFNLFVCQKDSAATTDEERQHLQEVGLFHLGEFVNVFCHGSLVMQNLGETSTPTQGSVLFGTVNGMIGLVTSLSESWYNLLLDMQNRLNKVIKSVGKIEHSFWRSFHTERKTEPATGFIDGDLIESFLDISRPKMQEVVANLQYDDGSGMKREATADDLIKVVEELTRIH
# Experiments:
# IKZF1 = IKZF1 (Homo sapiens, UniProt Q13422+Q96SW2); assay: Western blot assay of substrate protein degradation in hPBMCs; conditions: 24 hours treatment, compounds at 50 nM and 500 nM (concentration behind the class not stated)
# IKZF2 = IKZF2 (Homo sapiens, UniProt Q96SW2+Q9UKS7); assay: as above; conditions: 24 hours treatment, compounds at 50 nM and 500 nM (concentration behind the class not stated)
# IKZF3 = IKZF3 (Homo sapiens, UniProt Q96SW2+Q9UKT9); assay: as above; conditions: 24 hours treatment, compounds at 50 nM and 500 nM (concentration behind the class not stated)
# WEE1 = WEE1 (Homo sapiens, UniProt P30291+Q96SW2); assay: as above; conditions: 24 hours treatment, compounds at 50 nM and 500 nM (concentration behind the class not stated)
# GSPT1 = GSPT1 (Homo sapiens, UniProt P15170+Q96SW2); assay: as above; conditions: 24 hours treatment, compounds at 50 nM and 500 nM (concentration behind the class not stated)
# CK1α = CK1α (Homo sapiens, UniProt P48729+Q96SW2); assay: as above; conditions: 24 hours treatment, compounds at 50 nM and 500 nM (concentration behind the class not stated)
# CRBN = CRBN (Homo sapiens, UniProt Q96SW2); assay: CRBN binding affinity by HTRF (CEREBLON BINDING kit); conditions: for Inhibition Rate at 0.5 µM (%) / Inhibition Rate at 2 µM (%): CRBN binding, HTRF; for Inhibition Rate at 0.5 µM (%): compound at 0.5 µM; for Inhibition Rate at 2 µM (%): compound at 2 µM; for IC50: read-out: HTRF IC50, human Cereblon WT GST-tagged protein, 3 hours at room temperature
SMILES,substrate protein remaining % (IKZF 1) (IKZF1),substrate protein remaining % (IKZF2) (IKZF2),substrate protein remaining % (IKZF3) (IKZF3),substrate protein remaining % (WEE1) (WEE1),substrate protein remaining % (GSPT1) (GSPT1),substrate protein remaining % (CK1a) (CK1α),Inhibition Rate at 0.5 µM (%) (CRBN),Inhibition Rate at 2 µM (%) (CRBN),IC50 (CRBN)
CC1(C)CCC(CN2CCN(C3CCN(CCc4ccc5c(c4)CN(C4CCC(=O)NC4=O)C5=O)CC3(F)F)CC2)=C(c2ccc(Cl)cc2)C1 (stereo not shown),B (80%< substrate protein remaining %≤ 100%),B (80%< substrate protein remaining %≤ 100%),B (80%< substrate protein remaining %≤ 100%),A (0% ≤ substrate protein remaining % ≤ 80%),A (0% ≤ substrate protein remaining % ≤ 80%),A (0% ≤ substrate protein remaining % ≤ 80%),a7 (70% < a7 ≤80%),a8 (80% < a8 ≤100%),–
O=C1CCC(N2Cc3ccc(CN4CCC(N5CCC(c6noc7cc(F)ccc67)CC5)C(F)(F)C4)cc3C2=O)C(=O)N1 (stereo not shown),B (80%< substrate protein remaining %≤ 100%),B (80%< substrate protein remaining %≤ 100%),B (80%< substrate protein remaining %≤ 100%),B (80%< substrate protein remaining %≤ 100%),A (0% ≤ substrate protein remaining % ≤ 80%),B (80%< substrate protein remaining %≤ 100%),a3 (30% < a3 ≤ 40%),a5 (53% < a5 ≤ 60%),–
O=C1CCC(N2Cc3c(CN4CCC(N5CCN(c6noc7cc(F)ccc67)CC5)CC4)cccc3C2=O)C(=O)N1 (stereo not shown),B (80%< substrate protein remaining %≤ 100%),B (80%< substrate protein remaining %≤ 100%),B (80%< substrate protein remaining %≤ 100%),B (80%< substrate protein remaining %≤ 100%),B (80%< substrate protein remaining %≤ 100%),A (0% ≤ substrate protein remaining % ≤ 80%),a2 (20% < a2 ≤ 30%),a5 (53% < a5 ≤ 60%),–
O=C1CCC(N2Cc3cc(CN4CCC(N5CCN(c6noc7cc(F)ccc67)CC5)CC4)ccc3C2=O)C(=O)N1 (stereo not shown),A (0% ≤ substrate protein remaining % ≤ 80%),B (80%< substrate protein remaining %≤ 100%),A (0% ≤ substrate protein remaining % ≤ 80%),A (0% ≤ substrate protein remaining % ≤ 80%),A (0% ≤ substrate protein remaining % ≤ 80%),B (80%< substrate protein remaining %≤ 100%),–,–,0.1 to 0.5 µM
O=C1CCC(N2Cc3cc(C(=O)N4CCC(N5CC=C(c6cccc(Cl)c6Cl)CC5)C(F)(F)C4)cc(F)c3C2=O)C(=O)N1 (stereo not shown),A (0% ≤ substrate protein remaining % ≤ 80%),A (0% ≤ substrate protein remaining % ≤ 80%),A (0% ≤ substrate protein remaining % ≤ 80%),A (0% ≤ substrate protein remaining % ≤ 80%),A (0% ≤ substrate protein remaining % ≤ 80%),A (0% ≤ substrate protein remaining % ≤ 80%),a4 (40% < a4 ≤ 53%),a7 (70% < a7 ≤80%),–
CC1(C)CCC(CN2CCN(C3CCN(C(=O)c4cccc5c4C(=O)N(C4CCC(=O)NC4=O)C5=O)CC3(F)F)CC2)=C(c2ccc(Cl)cc2)C1 (stereo not shown),B (80%< substrate protein remaining %≤ 100%),B (80%< substrate protein remaining %≤ 100%),A (0% ≤ substrate protein remaining % ≤ 80%),B (80%< substrate protein remaining %≤ 100%),B (80%< substrate protein remaining %≤ 100%),B (80%< substrate protein remaining %≤ 100%),a2 (20% < a2 ≤ 30%),a5 (53% < a5 ≤ 60%),–
CC1(C)CCC(C(=O)N2CCN(C3CCN(Cc4ccc5c(c4)CN(C4CCC(=O)NC4=O)C5=O)CC3(F)F)CC2)=C(c2ccc(Cl)cc2)C1 (stereo not shown),A (0% ≤ substrate protein remaining % ≤ 80%),A (0% ≤ substrate protein remaining % ≤ 80%),A (0% ≤ substrate protein remaining % ≤ 80%),A (0% ≤ substrate protein remaining % ≤ 80%),A (0% ≤ substrate protein remaining % ≤ 80%),B (80%< substrate protein remaining %≤ 100%),–,–,0.1 to 0.5 µM
O=C1CCC(N2Cc3ccc(CN4CCC(N5CCC(c6noc7cc(F)ccc67)CC5)C(F)(F)C4)cc3C2=S)C(=O)N1 (stereo not shown),B (80%< substrate protein remaining %≤ 100%),B (80%< substrate protein remaining %≤ 100%),B (80%< substrate protein remaining %≤ 100%),B (80%< substrate protein remaining %≤ 100%),A (0% ≤ substrate protein remaining % ≤ 80%),B (80%< substrate protein remaining %≤ 100%),a4 (40% < a4 ≤ 53%),a6 (60% < a6 ≤ 70%),–
O=C1CCC(N2Cc3c(CN4CCC(N5CCN(C(c6ccccc6)c6ccccn6)CC5)C(F)(F)C4)cccc3C2=S)C(=O)N1 (stereo not shown),B (80%< substrate protein remaining %≤ 100%),B (80%< substrate protein remaining %≤ 100%),B (80%< substrate protein remaining %≤ 100%),A (0% ≤ substrate protein remaining % ≤ 80%),B (80%< substrate protein remaining %≤ 100%),B (80%< substrate protein remaining %≤ 100%),a5 (53% < a5 ≤ 60%),a8 (80% < a8 ≤100%),–
CC1(C)CCC(CN2CCN(C3CCN(Cc4ccc5c(c4)CN(C4CCC(=O)NC4=O)C5=S)CC3(F)F)CC2)=C(c2ccc(Cl)cc2)C1 (stereo not shown),A (0% ≤ substrate protein remaining % ≤ 80%),B (80%< substrate protein remaining %≤ 100%),B (80%< substrate protein remaining %≤ 100%),A (0% ≤ substrate protein remaining % ≤ 80%),A (0% ≤ substrate protein remaining % ≤ 80%),B (80%< substrate protein remaining %≤ 100%),a2 (20% < a2 ≤ 30%),a5 (53% < a5 ≤ 60%),–
CC1(C)CCC(C(=O)N2CCN(C3CCN(Cc4ccc5c(c4)C(=O)N(C4CCC(=O)NC4=O)C5=O)CC3(F)F)CC2)=C(c2ccc(Cl)cc2)C1 (stereo not shown),B (80%< substrate protein remaining %≤ 100%),A (0% ≤ substrate protein remaining % ≤ 80%),B (80%< substrate protein remaining %≤ 100%),A (0% ≤ substrate protein remaining % ≤ 80%),A (0% ≤ substrate protein remaining % ≤ 80%),A (0% ≤ substrate protein remaining % ≤ 80%),a2 (20% < a2 ≤ 30%),a6 (60% < a6 ≤ 70%),–
CC1(C)CCC(CN2CCN(C3CCN(C(=O)c4ccc5c(c4)CN(C4CCC(=O)NC4=O)C5=O)CC3(F)F)CC2)=C(c2ccc(Cl)cc2)C1 (stereo not shown),B (80%< substrate protein remaining %≤ 100%),B (80%< substrate protein remaining %≤ 100%),B (80%< substrate protein remaining %≤ 100%),B (80%< substrate protein remaining %≤ 100%),A (0% ≤ substrate protein remaining % ≤ 80%),B (80%< substrate protein remaining %≤ 100%),a1 (10% < a1 ≤ 20%),a6 (60% < a6 ≤ 70%),–
